Columns and labels:
Sprague-Dawley rats [1] = test: Rat toxicity study e371 single dose; conditions: ethanol, Cremophor EL and D5W (10:10:80)
Sprague-Dawley rats [2] = test: Rat toxicity study e371 multiple dose; conditions: weekly, ethanol, Cremophor EL and D5W (10:10:80)
[3] = system: human MSTO-211H mesothelioma xenograft; test: MSTO-211H xenograft study 091 (Example 31); assay type: in vivo; conditions: 30 mg/kg IV Q4D × 4
[4] = system: human HT29 colon carcinoma xenografts; test: HT29 xenograft study e138 (Example 22); conditions: 30 mg/kg IV Q4D × 4

## CC(=O)O[C@@]12CO[C@@H]1C[C@H](O)[C@@]1(C)C(=O)[C@H](OC(=O)C3CC3)C3=C(C)[C@@H](OC(=O)[C@H](O)[C@@H](NC(=O)OC4CCC4)c4cccs4)C[C@@](O)([C@@H](OC(=O)c4ccccc4)C12)C3(C)C (stereo partly drawn) [Compound 18365]
Sprague-Dawley rats [1]
  axonal degeneration vs docetaxel: less axonal degeneration than docetaxel
  rat toxicity score vs docetaxel: higher (safer) rat toxicity score
Sprague-Dawley rats [2]
  axonal degeneration vs docetaxel: less axonal degeneration than docetaxel

## CCC(=O)O[C@H]1C(=O)[C@@]2(C)C([C@H](OC(=O)c3ccccc3)[C@]3(O)C[C@H](OC(=O)[C@H](O)[C@@H](NC(=O)OC4CCCC4)c4cccs4)C(C)=C1C3(C)C)[C@]1(OC(C)=O)CO[C@@H]1C[C@@H]2O (stereo partly drawn) [Compound 18926]
Sprague-Dawley rats [1]
  axonal degeneration vs docetaxel: less axonal degeneration than docetaxel
  rat toxicity score vs docetaxel: higher (safer) rat toxicity score
[3]
  toxicity: toxic at this dose
Sprague-Dawley rats [2]
  axonal degeneration vs docetaxel: less axonal degeneration than docetaxel

## CCC(=O)O[C@H]1C(=O)[C@@]2(C)C([C@H](OC(=O)c3ccccc3)[C@]3(O)C[C@H](OC(=O)[C@H](O)[C@@H](NC(=O)OC4CCC4)c4cccs4)C(C)=C1C3(C)C)[C@]1(OC(C)=O)CO[C@@H]1C[C@@H]2O (stereo partly drawn) [Compound 19244]
Sprague-Dawley rats [1]
  axonal degeneration vs docetaxel: less axonal degeneration than docetaxel
  rat toxicity score vs docetaxel: higher (safer) rat toxicity score
[4]
  Max. BW Loss %; Day: −10.5%; Day 14
[4]; N=6
  Number of Death NTR: 0
  Number of Death TR: 0

Source: US8242166B2, “C(10) ethyl ester and C(10) cyclopropyl ester substituted taxanes” (Florida State University Research Foundation, Inc., priority 2008, dated 2012)
